Experimental data taken from BindingDB's records for doi:10.1021/jm070189q (Amgen, 2007).

Sequences of proteins named here, by UniProt entry; tags and fusion partners are left off.
UniProt O35433, whole entry: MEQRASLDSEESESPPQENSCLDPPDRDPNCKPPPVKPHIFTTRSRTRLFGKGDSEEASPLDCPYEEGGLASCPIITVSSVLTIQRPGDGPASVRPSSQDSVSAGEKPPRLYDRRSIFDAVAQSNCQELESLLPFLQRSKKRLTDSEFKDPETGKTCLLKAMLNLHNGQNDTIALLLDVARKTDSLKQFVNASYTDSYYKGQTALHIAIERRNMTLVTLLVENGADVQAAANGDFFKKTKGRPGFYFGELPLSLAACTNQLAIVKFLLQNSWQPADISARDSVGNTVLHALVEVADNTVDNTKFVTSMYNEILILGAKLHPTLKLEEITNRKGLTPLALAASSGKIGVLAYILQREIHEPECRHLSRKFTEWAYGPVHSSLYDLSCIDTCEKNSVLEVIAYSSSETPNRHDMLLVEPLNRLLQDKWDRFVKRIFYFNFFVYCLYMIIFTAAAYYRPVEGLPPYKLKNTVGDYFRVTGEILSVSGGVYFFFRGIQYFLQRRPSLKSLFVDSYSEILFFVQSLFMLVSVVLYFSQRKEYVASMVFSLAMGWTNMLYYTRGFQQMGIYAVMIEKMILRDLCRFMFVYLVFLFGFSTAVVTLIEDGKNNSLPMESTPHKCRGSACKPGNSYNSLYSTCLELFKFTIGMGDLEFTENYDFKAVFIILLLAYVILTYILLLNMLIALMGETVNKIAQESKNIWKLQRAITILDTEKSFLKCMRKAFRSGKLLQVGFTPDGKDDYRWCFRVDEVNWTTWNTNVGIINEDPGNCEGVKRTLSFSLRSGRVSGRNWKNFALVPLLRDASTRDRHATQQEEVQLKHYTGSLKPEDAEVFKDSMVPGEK

Target: Transient receptor potential cation channel subfamily V member 1 (Rattus norvegicus, UniProt O35433)
Experiment: Capsaicin Antagonist Assay

IC50: 350 nM
IC50 (pH 7.4, 22 °C): 79 nM
Compound: CC(C)(C)c1ccc(/C=C\C(=O)Nc2ccc3c(c2)OCCO3)cc1 [AMG9810]
